Laboratory results from US20250059218A1, “ENPP1 Inhibitors and Methods of Modulating Immune Response” (The Board of Trustees of the Leland Stanford Junior …, priority 2019, published 2025).

Protein sequences, listed by entry. Tags and fused reporters are not part of them. Residues count along the entry.
UniProt P06802, 85-906 limits assumed: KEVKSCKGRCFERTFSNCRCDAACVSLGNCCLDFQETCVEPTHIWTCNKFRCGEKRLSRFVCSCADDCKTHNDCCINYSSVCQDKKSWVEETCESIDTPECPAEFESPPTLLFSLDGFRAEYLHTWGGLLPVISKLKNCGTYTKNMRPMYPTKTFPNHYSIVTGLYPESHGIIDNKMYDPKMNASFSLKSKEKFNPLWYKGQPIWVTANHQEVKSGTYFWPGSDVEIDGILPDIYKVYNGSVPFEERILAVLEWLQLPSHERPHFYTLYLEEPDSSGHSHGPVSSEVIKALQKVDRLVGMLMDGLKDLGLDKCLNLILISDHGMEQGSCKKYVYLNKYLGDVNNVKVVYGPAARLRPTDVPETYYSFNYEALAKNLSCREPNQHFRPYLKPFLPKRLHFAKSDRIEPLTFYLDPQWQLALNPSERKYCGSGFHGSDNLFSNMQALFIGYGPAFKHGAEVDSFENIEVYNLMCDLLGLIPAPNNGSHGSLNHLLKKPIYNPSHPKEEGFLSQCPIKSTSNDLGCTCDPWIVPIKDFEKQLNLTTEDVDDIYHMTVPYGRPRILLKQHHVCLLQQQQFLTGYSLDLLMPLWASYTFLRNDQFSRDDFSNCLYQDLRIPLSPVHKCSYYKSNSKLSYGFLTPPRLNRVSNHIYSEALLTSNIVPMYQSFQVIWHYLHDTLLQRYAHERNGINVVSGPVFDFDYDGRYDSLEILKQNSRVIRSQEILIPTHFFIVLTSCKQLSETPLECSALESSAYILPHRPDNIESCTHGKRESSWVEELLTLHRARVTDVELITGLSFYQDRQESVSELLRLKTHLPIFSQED
UniProt P22413, whole entry: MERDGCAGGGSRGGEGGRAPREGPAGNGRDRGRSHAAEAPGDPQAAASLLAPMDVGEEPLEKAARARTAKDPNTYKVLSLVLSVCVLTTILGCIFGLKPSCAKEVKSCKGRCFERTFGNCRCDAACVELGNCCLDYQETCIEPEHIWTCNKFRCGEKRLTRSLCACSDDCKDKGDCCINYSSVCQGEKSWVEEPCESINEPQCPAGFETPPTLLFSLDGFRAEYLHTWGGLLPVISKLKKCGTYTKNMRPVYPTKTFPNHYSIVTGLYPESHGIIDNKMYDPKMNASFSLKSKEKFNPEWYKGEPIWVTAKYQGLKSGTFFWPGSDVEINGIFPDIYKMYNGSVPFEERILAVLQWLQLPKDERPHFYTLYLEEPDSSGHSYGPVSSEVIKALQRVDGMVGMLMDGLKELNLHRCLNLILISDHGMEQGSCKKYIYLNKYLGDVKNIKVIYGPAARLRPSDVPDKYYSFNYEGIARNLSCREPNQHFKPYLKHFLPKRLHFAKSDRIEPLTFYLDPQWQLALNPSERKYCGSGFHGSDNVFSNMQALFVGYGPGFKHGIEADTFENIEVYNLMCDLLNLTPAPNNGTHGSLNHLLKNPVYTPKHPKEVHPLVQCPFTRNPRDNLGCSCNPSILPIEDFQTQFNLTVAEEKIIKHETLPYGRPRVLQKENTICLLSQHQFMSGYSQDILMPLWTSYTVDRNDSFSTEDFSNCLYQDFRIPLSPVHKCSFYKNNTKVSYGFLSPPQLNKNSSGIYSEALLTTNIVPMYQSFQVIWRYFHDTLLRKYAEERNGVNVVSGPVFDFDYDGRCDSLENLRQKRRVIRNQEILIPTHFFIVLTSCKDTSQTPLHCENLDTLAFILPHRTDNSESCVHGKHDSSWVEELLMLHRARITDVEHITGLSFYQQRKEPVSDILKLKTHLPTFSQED

What was measured:
[1] = tested on: cGAMP export in 293T cGAS ENPP1−/− cells; experiment: cGAMP export assay in 293T cGAS ENPP1−/− cells; type: cell-based, human
[2] = target: purified mouse ENPP1 (Mus musculus (Mouse), UniProt P06802); experiment: 32P-cGAMP degradation TLC assay; type: biochemical; details: read-out: Ki,app; 32P-cGAMP as substrate, pH 7.5; unit given as M
[3] = target: human ENPP1 transiently expressed in 293T cGAS ENPP1−/− cells (Homo sapiens (Human), UniProt P22413); experiment: Extracellular cGAMP in ENPP1-overexpressing 293T cGAS cells (LC-MS/MS); type: cell-based

- Ki [2]: 6.4 µM
Compound: COc1cc2ncnc(N3CCC(CCNS(N)(=O)=O)CC3)c2cc1OC
- intracellular cGAMP ([1]; 293T cGAS ENPP1−/− cells): elevated intracellular cGAMP
- cGAMP export ([1]; ENPP1 knockout cells): partially blocked cGAMP export
- extracellular cGAMP degradation [3]: can inhibit extracellular cGAMP degradation
